Laboratory results reported in patent US12139488B2, “Pyrido[3,2-d]pyrimidine compounds uses thereof for treating a proliferative disease” (Universite de Montreal, priority 2021, dated 2024).

Tests used:
[1] = test system: HCT-116 cells (KRAS G13D); assay: Proliferation inhibition (CellTiter-Glo), HCT116; conditions: read-out: HCT116 Prolif. EC50; HCT116, 3 days
Procedure: (§1) All cancer cell lines (A375, A101D, A2058, RKO, HT29 SK-MEL 30, IPC298, HepG2, HCT-116, Lovo, SWV620, SW480, NCI-H358, NCI-H2122, Calu-6, NCIH2087, NCIH1755, NCIH1666 and Mewo) were obtained from ATCC and cultured in RPMI-1640 medium (Gibco) supplemented with 5% heat inactivated fetal bovine serum (FBS, Wisent) at 37° C. under 5% CO2. Cells were maintained in T175 flasks (Greiner). They were passaged by removing the culture medium, washing once in 10 mL of room temperature Phosphate Buffered Saline (PBS; Wisent) and incubating at 37° C. with 2 mL of 0.05% Trypsin (Thermo-Fisher). Trypsin was then inactivated by adding complete growth medium and the cells were then replated in a T175 culture dish at the appropriate dilution. All cell lines were routinely tested for mycoplasma contamination. Tissue type and mutational status of each cell line can be found in Table B.
(§2) CellTiter-Glo® viability analysis was conducted on cells plated in 100 μL of complete RPMI-1640 growth medium in 96-well flat-bottomed white opaque plates (Greiner or Croning) at a density indicated in Table E (for each CCL, number of cells plated per well of a 96-well plate to perform the CellTiter-Glo® cell viability assay). The cell density in cells/cm^2 would correspond to cell number divided by the area of one well of a 96-well plate (0.32 cm^2). Cells were maintained overnight at 37° C. under 5% CO2 before treatment with compounds' dilution series for 3 days.
(§3) In a dilution series 100 μL/well of test substance dilution prepared in complete RPMI-1640 growth media was added to the cells plated initially in 100 μL of growth media. The dilution series is selected so that ten concentrations cover a range from 10 μM to 0.33 nM. If necessary (as in the case of A375 cells, which were more sensitive to the compounds) the initial concentration of 10 μM is lowered to 1 μM and further dilution is carried out accordingly. The final concentration of DMSO in the assay is set at is 0.5%.
(§4) After 3 days of incubation, the growth media were removed by aspiration and 60 μL of diluted CellTiter-Glo® reagent (10 μL CellTiter-Glo® reagent+50 μL of PBS) was added to each well. Cells were allowed to lyse and to equilibrate in CellTiter-Glo® reagent by 5 min incubation on a plate shaker followed by 10 min incubation at room temperature. Luminescence signals were then acquired on a Synergy Neo2 plate reader (Biotek).
(§5) The effect of each compound dilution on the proliferation of cancer cell lines was expressed in % inhibition and calculated as follows. An internal 100% inhibition control (1 μM of trametinib; cat #HY-10999; MedChem Express; CAS #871700-17-3) was included in each plate and used as a measure of CellTiter-Glo® signal background. The value obtained for trametinib was subtracted from each data point. The average of DMSO (vehicle) controls (set as 0% inhibition) was established and used to calculate % inhibition: % inhibition=100*(1−((CellTiter-Glo® signalcompound)/(CellTiter-Glo® signalDMSO)))
(§6) The ability of each compound to inhibit proliferation was expressed as a EC50 value obtained by plotting the effect values for each data point of a dilution series and fitting the obtained curves using a log(agonist) versus response-variable slope (four parameters) function using GraphPadPrism (V7.0) or Dotmatics Screening Ultra platform.

[2] = test system: HepG2 cells (NRAS-Q61L); assay: Proliferation inhibition (CellTiter-Glo), HepG2; conditions: read-out: HepG2 Prolif. EC50; HepG2, 3 days
Procedure: as §1, §2, §3, §4, §5, §6

[3] = test system: Lovo cells (KRAS-G13D); assay: Proliferation inhibition (CellTiter-Glo), Lovo; conditions: read-out: Lovo Prolif. EC50, 3 days
Procedure: as §1, §2, §3, §4, §5, §6

[4] = test system: SW480 cells (KRAS G12D); assay: Proliferation inhibition (CellTiter-Glo), SW480; conditions: read-out: SW480 Prolif. EC50; SW480, 3 days
Procedure: as §1, §2, §3, §4, §5, §6

[5] = test system: A375 cells (BRAF V600E); assay: Proliferation inhibition (CellTiter-Glo), A375; conditions: read-out: A375 Prolif. EC50; A375, 3 days
Procedure: as §1, §2, §3, §4, §5, §6

[6] = test system: pERK in HepG2 cells (NRAS-Q61L); assay: Phospho-ERK inhibition (AlphaLISA), HepG2; conditions: for HepG2 pERK % Ymin: HepG2, value in parentheses; for IC50: read-out: HepG2 pERK IC50, HepG2
Procedure: as §1
AlphaLISA® SureFire® Ultra™ p-ERK 1/2 (Thr202/Tyr204) analysis was conducted on cells plated in 100 μL of complete RPMI-1640 growth medium in 96-well flat-bottomed transparent dishes (Costar) at a density indicated in Table C. Cells were maintained overnight at 37° C. under 5% CO2 before treatment with compounds' dilution series for one hour. The cell density in cells/cm^2 corresponds to cell number divided by the area of one well of a 96-well plate ([…]).
In a dilution series 100 μL/well of test substance dilution prepared in complete RPMI-1640 growth media was added to the cells. The dilution series is selected so that ten concentrations cover a range from 10 μM to 0.33 nM. If necessary the initial concentration of 10 μM is increased to 100 μM or lowered to 1 μM (as in the case of A375 and H1666 cells, which are generally more sensitive to the compounds) and further dilution is carried out accordingly. The final concentration of DMSO in the assay is set at 0.5%.
After treatment, media was removed and cells were lysed in 50 μL of 1× AlphaScreen Ultra Lysis Buffer (Perkin Elmer). The AlphaLISA® SureFire® Ultra™ p-ERK 1/2 (Thr202/Tyr2O4) (PerkinElmer) reactions were performed with 5 μL of cell lysate according to the manufacturer's specifications in 384-well proxyplates (Perkin Elmer) followed by overnight incubation of the reactions at room temperature in a humidified chamber. After completion of the reactions, the signals were recorded on an EnVision plate reader (Perkin Elmer) using built in AlphaLISA® settings.
The effect of each compound dilution on the pERK signal was expressed in % inhibition and calculated as follows. An internal 100% inhibition control ([…] trametinib, cat #HY-10999; MedChem Express; CAS #871700-17-3) was included in each plate and used as a measure of pERK background. First, the value obtained for trametinib was subtracted from each data point. The average of DMSO (vehicle) controls (set as 0% inhibition) was established and used to calculate % inhibition: % inhibition=100*(1-((pERK signalcompound)/(pERK signalDMSO)))
as §6, with “pERK signal” for “proliferation”, “an IC50” for “a EC50”, “inhibition” for “effect”
When present, paradoxical pERK induction is inferred from the negative % inhibition values observed in the pERK IC50 curves of a compound.

[7] = test system: RKO cells (BRAF V600E); assay: Proliferation inhibition (CellTiter-Glo), RKO; conditions: read-out: RKO Prolif. EC50, 3 days
Procedure: as §1, §2, §3, §4, §5, §6

EC50 [1] [µM]	EC50 [2] [µM]	EC50 [3] [µM]	EC50 [4] [µM]	EC50 [5] [µM]	IC50 [6] [µM]	Compound	HepG2 pERK % Ymin [6] [%]	EC50 [7] [µM]
< 0.03	< 0.03	< 0.03	0.3 to 3	< 0.03	0.03 to 0.3	O=S(=O)(CCCN1CCOCC1)c1cn(-c2ccc3ncnc(Nc4c(F)ccc(NS(=O)(=O)c5cccc(Cl)c5Cl)c4F)c3n2)c2ccccc12	9	< 0.03
< 0.03	< 0.03	< 0.03	< 0.03	< 0.03	–	Cc1c(F)cccc1S(=O)(=O)Nc1ccc(F)c(Nc2ncnc3ccc(-n4nc(C(=O)N(C)Cc5cccnc5)c5ccccc54)nc23)c1F	–	< 0.03
< 0.03	< 0.03	< 0.03	> 3	< 0.03	0.03 to 0.3	CS(=O)(=O)C1CCN(c2cccc3c2nnn3-c2ccc3ncnc(Nc4c(F)ccc(NS(=O)(=O)c5cccc(Cl)c5Cl)c4F)c3n2)CC1	4	< 0.03
< 0.03	< 0.03	< 0.03	0.3 to 3	< 0.03	0.03 to 0.3	COc1ccc(S(=O)(=O)Nc2ccc(F)c(Nc3ncnc4ccc(-n5cc(S(=O)(=O)N(C)CCN(C)C)c6ccccc65)nc34)c2F)c(C)c1F	−3	< 0.03
< 0.03	< 0.03	< 0.03	0.3 to 3	< 0.03	< 0.03	CN(CCN1CCOCC1)S(=O)(=O)c1cn(-c2ccc3ncnc(Nc4c(F)ccc(NS(=O)(=O)c5cccc(Cl)c5Cl)c4F)c3n2)c2ccccc12	3	< 0.03
< 0.03	< 0.03	0.3 to 3	0.3 to 3	< 0.03	0.03 to 0.3	Cc1c(Cl)cccc1S(=O)(=O)Nc1ccc(F)c(Nc2ncnc3ccc(-n4cnc5c(N)cccc54)nc23)c1F	5	< 0.03
< 0.03	< 0.03	< 0.03	0.3 to 3	< 0.03	< 0.03	O=S(=O)(Nc1ccc(F)c(Nc2ncnc3ccc(-n4cnc5c(N6CCC7(CCCC7)CC6)cccc54)nc23)c1F)c1cccc(Cl)c1Cl	20	< 0.03
0.3 to 3	< 0.03	< 0.03	0.3 to 3	< 0.03	< 0.03	O=S(=O)(Nc1ccc(F)c(Nc2ncnc3ccc(-n4nnc5ccccc54)nc23)c1F)c1cccc(Cl)c1Cl	11	< 0.03
< 0.03	< 0.03	< 0.03	0.3 to 3	< 0.03	< 0.03	COCCOc1cccc2c1nnn2-c1ccc2ncnc(Nc3c(F)ccc(NS(=O)(=O)c4cccc(Cl)c4Cl)c3F)c2n1	26	< 0.03
< 0.03	< 0.03	< 0.03	0.3 to 3	< 0.03	0.03 to 0.3	Cc1c(Cl)csc1S(=O)(=O)Nc1ccc(F)c(Nc2ncnc3ccc(-n4cc(S(=O)(=O)N(C)CCN(C)C)c5ccccc54)nc23)c1F	1	< 0.03
< 0.03	< 0.03	< 0.03	0.3 to 3	< 0.03	0.03 to 0.3	CCC1(O)CCN(c2cccc3c2ncn3-c2ccc3ncnc(Nc4c(F)ccc(NS(=O)(=O)c5cccc(Cl)c5Cl)c4F)c3n2)CC1	7	< 0.03
< 0.03	< 0.03	0.3 to 3	0.3 to 3	< 0.03	0.03 to 0.3	Cc1c(F)cccc1S(=O)(=O)Nc1ccc(F)c(Nc2ncnc3ccc(-n4cnc5c(-c6cccnc6)cccc54)nc23)c1F	7	< 0.03
< 0.03	< 0.03	< 0.03	0.3 to 3	< 0.03	0.03 to 0.3	O=S(=O)(Nc1ccc(F)c(Nc2ncnc3ccc(-n4cnc5c(N6CCC(O)(C(F)(F)F)CC6)cccc54)nc23)c1F)c1cccc(Cl)c1Cl	−7	< 0.03
0.3 to 3	< 0.03	< 0.03	0.3 to 3	< 0.03	0.03 to 0.3	Cc1c(Cl)cccc1S(=O)(=O)Nc1ccc(F)c(Nc2ncnc3ccc(-n4cc(C(=O)N5CCN(C)CC5)c5ccccc54)nc23)c1F	7	< 0.03
